The NIST ThermoML archive (doi:10.1016/j.jct.2009.07.014)

Experiment: excess molar enthalpy (molar enthalpy of mixing); xn = mol fraction of the nth substance listed
Settings: 101.3 kPa, Liquid, Flow calorimetry

CCCCOCCCC [dibutyl ether] + CCCCCCC
excess molar enthalpy [kcal/mol]
Settings | 298.15 K | 313.15 K
x1 = 0.0496 | – | 0.00652
x1 = 0.0497 | 0.00636 | –
x1 = 0.1001 | – | 0.0122
x1 = 0.1002 | 0.0121 | –
x1 = 0.1496 | – | 0.0163
x1 = 0.1498 | 0.0165 | –
x1 = 0.1998 | – | 0.0201
x1 = 0.2 | 0.0203 | –
x1 = 0.2499 | – | 0.0233
x1 = 0.2501 | 0.0234 | –
x1 = 0.2998 | – | 0.0257
x1 = 0.3 | 0.0258 | –
x1 = 0.3503 | – | 0.0275
x1 = 0.3506 | 0.0277 | –
x1 = 0.3998 | – | 0.0286
x1 = 0.4 | 0.0288 | –
x1 = 0.4499 | – | 0.0292
x1 = 0.4501 | 0.0294 | –
x1 = 0.4998 | – | 0.0291
x1 = 0.5 | 0.0293 | –
x1 = 0.5494 | – | 0.0285
x1 = 0.5496 | 0.029 | –
x1 = 0.5997 | – | 0.0275
x1 = 0.5998 | 0.0279 | –
x1 = 0.6496 | – | 0.0258
x1 = 0.6498 | 0.0262 | –
x1 = 0.6993 | – | 0.0236
x1 = 0.6994 | 0.024 | –
x1 = 0.7496 | – | 0.0208
x1 = 0.7498 | 0.0212 | –
x1 = 0.7996 | – | 0.0175
x1 = 0.7998 | 0.0179 | –
x1 = 0.8503 | – | 0.0137
x1 = 0.8505 | 0.0138 | –
x1 = 0.8995 | – | 0.00954
x1 = 0.8996 | 0.00951 | –
x1 = 0.9494 | 0.00454 | 0.00492

CCCCOCCCC [dibutyl ether] + CCCCO
excess molar enthalpy [kcal/mol]
Settings | 298.15 K | 313.15 K
x1 = 0.0501 | 0.0285 | 0.034
x1 = 0.1002 | 0.0564 | –
x1 = 0.1003 | – | 0.0667
x1 = 0.1497 | 0.0823 | –
x1 = 0.1498 | – | 0.0972
x1 = 0.2003 | 0.107 | –
x1 = 0.2004 | – | 0.126
x1 = 0.2502 | – | 0.152
x1 = 0.2503 | 0.129 | –
x1 = 0.3004 | 0.149 | 0.175
x1 = 0.3497 | – | 0.196
x1 = 0.3498 | 0.167 | –
x1 = 0.4004 | – | 0.214
x1 = 0.4006 | 0.182 | –
x1 = 0.4505 | – | 0.228
x1 = 0.4507 | 0.195 | –
x1 = 0.4995 | – | 0.238
x1 = 0.4997 | 0.204 | –
x1 = 0.5503 | – | 0.246
x1 = 0.5506 | 0.21 | –
x1 = 0.5994 | – | 0.25
x1 = 0.5998 | 0.213 | –
x1 = 0.6502 | – | 0.249
x1 = 0.6505 | 0.213 | –
x1 = 0.6997 | – | 0.243
x1 = 0.7 | 0.209 | –
x1 = 0.7506 | – | 0.231
x1 = 0.7509 | 0.199 | –
x1 = 0.7998 | – | 0.214
x1 = 0.8 | 0.185 | –
x1 = 0.8499 | – | 0.186
x1 = 0.8501 | 0.162 | –
x1 = 0.8993 | – | 0.147
x1 = 0.8994 | 0.13 | –
x1 = 0.9493 | 0.0789 | –
x1 = 0.9494 | – | 0.087
